Test results taken from US5047397A, “Linear analogs of atrial natriuretic peptides” (California Biotechnology Inc., priority 1988, dated 1991).

Tested on: anesthetized rats
Test: Blood pressure responses in anesthetized rats
Format: in vivo, rat
Conditions: infusion 183 p mol/kg/min

SMILES: CC[C@H](C)[C@@H]1NC(=O)[C@H](CCCNC(=N)N)NC(=O)[C@H](CC(=O)O)NC(=O)[C@H]([C@@H](C)CC)NC(=O)[C@H](CCCNC(=N)N)NC(=O)CNC(=O)CNC(=O)[C@H](Cc2ccccc2)NC(=O)[C@@H](NC(=O)[C@H](CO)NC(=O)[C@H](CO)NC(=O)[C@@H](N)CCCNC(=N)N)CSSC[C@@H](C(=O)N[C@@H](CC(N)=O)C(=O)N[C@@H](CO)C(=O)N[C@@H](Cc2ccccc2)C(=O)N[C@@H](CCCNC(=N)N)C(=O)N[C@@H](Cc2ccc(O)cc2)C(=O)O)NC(=O)CNC(=O)[C@H](CC(C)C)NC(=O)CNC(=O)[C@H](CO)NC(=O)[C@H](CCC(N)=O)NC(=O)[C@H](C)NC(=O)CNC1=O [rANP(126-150), R--S--S--C--F--G--G--R--I--D--R--I--G--A--Q--S--G--L--G--C--N--S--F--R--Y, reference compound]
- Blood Pressure: -39 ± 5
